Source: ChEMBL document CHEMBL4715829, “Heterodimeric Rifampicin-Tobramycin conjugates break intrinsic resistance of Pseudomonas aeruginosa to doxycycline and chloramphenicol in vitro and in a Galleria mellonella in vivo model” (Eur J Med Chem, 2019)

Legend:
Pseudomonas aeruginosa [1] = assay: Antibacterial activity against Pseudomonas aeruginosa 264-101354 assessed as fractional inhibitory concentration index in presence of doxycycline incubated for 18 hrs by broth microdilution assay; type: functional
Pseudomonas aeruginosa [2] = assay: Antibacterial activity against Pseudomonas aeruginosa 100036 assessed as fractional inhibitory concentration index in presence of doxycycline incubated for 18 hrs by broth microdilution assay; type: functional

Compound: CO[C@H]1/C=C/O[C@@]2(C)Oc3c(C)c(O)c4c(O)c(c(/C=N/N5CCN(C)CC5)c(O)c4c3C2=O)NC(=O)/C(C)=C\C=C\[C@H](C)[C@H](O)[C@@H](C)[C@@H](O)[C@@H](C)[C@H](OC(C)=O)[C@@H]1C [RIFAMPIN]
- fractional inhibitory concentration index (FICI) (Pseudomonas aeruginosa [1]): 1.25
- fractional inhibitory concentration index (FICI) (Pseudomonas aeruginosa [2]): 1.25
